How the values were obtained:
[1] = Ratio, ratio of fraction unbound in solid supported porcine brain membrane vesicles at 5 uM dosed as discrete compounds after 5 hrs by TRANSIL assay to fraction unbound in solid supported porcine brain membrane vesicles at 5 uM using four compound cocktail after 5 hrs by TRANSIL assay; assay type: ADME, Sus scrofa; settings: pig, in vitro
[2] = biological target: Albumin (Rattus norvegicus, UniProt P02770); test: Binding affinity to Wistar rat serum albumin; assay type: ADME
[3] = Ratio of fraction unbound in solid supported porcine brain membrane vesicles at 5 uM by TRANSIL assay to fraction unbound in Wistar rat brain homogenate at 5 uM after 5 hrs by equilibrium dialysis method; assay type: ADME, tissue-based
[4] = Ratio of fraction unbound in Wistar rat brain homogenate at 5 uM after 5 hrs by equilibrium dialysis method to fraction unbound in solid supported porcine brain membrane vesicles at 5 uM by TRANSIL assay
[5] = Binding affinity to Wistar rat brain lipid by TRANSIL assay; assay type: ADME

Row | Structure (SMILES) | Ratio [1] | Kd [2] | Ratio [3] | Ratio [4] | Kd [5]
1 | NC(=O)N1c2ccccc2C=Cc2ccccc21 [CARBAMAZEPINE] | 0.5 | 103 µM | 1.1 |  | 
2 | COc1ccc(C(CN(C)C)C2(O)CCCCC2)cc1 (configuration not stated) [VENLAFAXINE] |  | 511 µM |  | 1.7 | 
3 | CN(C)CCCN1c2ccccc2Sc2ccc(Cl)cc21 [CHLORPROMAZINE] |  | 11.7 µM | 1.1 |  | 
4 | CCN(CC)CCNC(=O)c1cc(Cl)c(N)cc1OC [METOCLOPRAMIDE] |  | 1370 µM |  | 1.2 | 
5 | CN1C(=O)CN=C(c2ccccc2)c2cc(Cl)ccc21 [DIAZEPAM] |  |  |  |  | 3.24 µM
6 | CN1CCN(CCCN2c3ccccc3Sc3ccc(C(F)(F)F)cc32)CC1 [TRIFLUOPERAZINE] |  | 14 µM | 2.6 |  | 
